Measurements published in patent US20250326933A1, “SOLID COMPOSITION OF INDOCYANINE GREEN AND SODIUM FLUORESCEIN” (ICROM Srl, priority 2021, published 2025).

Test: Solubility in water evaluated by filtration of the solution on a syringe filter
Details: without sodium iodide, dry isolated powder after crystallization, 20-25° C., 5 mg/ml or 2.5 mg/ml

## CC1(C)C(/C=C/C=C/C=C/C=C2\N(CCCCS(=O)(=O)[O-])c3ccc4ccccc4c3C2(C)C)=[N+](CCCCS(=O)(=O)[O-])c2ccc3ccccc3c21.[Na+] [compound of formula (IA), 1H-benz[e]indole, 2-[7-[1,3-dihydro-1,1-dimethyl-3-(4-sulfobutyl)-2H-benz[e]indol-2-ylidene]-1,3,5-heptatrienyl]-1,1-dimethyl-3-(4-sulfobutyl) hydroxide, inner salt, sodium salt]
  Solubility in water: not soluble
